Measured values: PubChem BioAssay AID504326 (The Scripps Research Institute Molecular Screening Center, 2011)
Only a part is listed here, and it is no random draw. Calls of active or inactive are those of the source. Rule as the data show it: active = activation above about 18%; inactive = the rest.

Amino acid sequences for entries named in this document (tags omitted).
UniProt P35372, whole entry, looked up: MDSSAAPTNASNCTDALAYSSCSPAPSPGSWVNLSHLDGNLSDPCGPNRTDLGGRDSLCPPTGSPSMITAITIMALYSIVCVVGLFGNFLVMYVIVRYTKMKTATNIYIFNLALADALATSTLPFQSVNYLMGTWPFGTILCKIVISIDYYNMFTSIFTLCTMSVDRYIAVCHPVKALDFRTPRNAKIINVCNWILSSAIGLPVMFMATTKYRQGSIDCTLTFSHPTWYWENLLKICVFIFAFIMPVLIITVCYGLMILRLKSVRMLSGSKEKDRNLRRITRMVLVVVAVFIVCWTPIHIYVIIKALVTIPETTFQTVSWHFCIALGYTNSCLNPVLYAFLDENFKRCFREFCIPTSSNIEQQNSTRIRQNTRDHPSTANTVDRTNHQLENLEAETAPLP
UniProt P41143, whole entry, looked up: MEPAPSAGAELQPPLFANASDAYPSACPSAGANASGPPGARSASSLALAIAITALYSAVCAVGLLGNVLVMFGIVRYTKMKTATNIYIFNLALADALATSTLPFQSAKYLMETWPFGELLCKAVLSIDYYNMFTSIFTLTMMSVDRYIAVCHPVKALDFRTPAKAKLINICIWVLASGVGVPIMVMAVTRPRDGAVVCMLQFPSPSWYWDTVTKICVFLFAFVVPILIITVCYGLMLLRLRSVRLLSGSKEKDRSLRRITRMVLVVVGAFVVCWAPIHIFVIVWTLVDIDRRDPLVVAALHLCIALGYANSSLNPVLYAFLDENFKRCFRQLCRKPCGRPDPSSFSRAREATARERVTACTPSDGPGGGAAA

Biological target: Mu-type opioid receptor (Homo sapiens) + Delta-type opioid receptor (Homo sapiens) (UniProt P35372+P41143)
Test: agonists of OPRM1-OPRD1 heterodimerization, primary screen, cell-based, luminescence (AID 504326);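 also: 0% = vehicle-treated cells and 100% = reference agonist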
Details: cells, at 9.3 µM, stronger effect = higher value

SMILES | activation
CN(C)CCn1cnc2ccccc21 | inactive: -2.38%
CN(C)C(=O)Oc1noc2ccccc12 | inactive: -2.03%
Cc1ccc(OCCNC(=O)Cn2cnc3c(=O)n(C)c(=O)n(C)c32)cc1C | inactive: -0.91%
CC(/C=N/NC(=O)Cn1cnc2c1c(=O)n(C)c(=O)n2C)=C\c1ccco1 | inactive: -2.39%
Cn1c(=O)c2c(ncn2CC(=O)NC2CCCCC2)n(C)c1=O | inactive: -1.51%
COC(=O)c1cc2c(s1)N=C(c1ccccc1)N(C)P2(=O)N1CCOCC1 (stereo unspecified) | inactive: 0.81%
CC(C)NC(=O)Cn1cnc2c1c(=O)n(C)c(=O)n2C | inactive: -1.59%
Cc1sc2ncnc(NC3CCN(Cc4ccccc4)CC3)c2c1C | inactive: 2.65%
Cc1ccc(OP(=O)(Nc2ccccn2)Oc2ccc(C)cc2)cc1 | inactive: -1.73%
CC(=O)NC(SC(=S)N(CC(C)C)CC(C)C)C(Cl)(Cl)Cl (stereo unspecified) | inactive: 3.08%
CC(C(=O)Nc1ccc2c(c1)OCO2)n1cnc2c1c(=O)n(C)c(=O)n2C (stereo unspecified) | inactive: -2.78%
Cn1c(=O)c2c(ncn2CC(=O)Nc2ccccc2N2CCOCC2)n(C)c1=O | inactive: -1.16%
CCc1cccc(CC)c1N(COC)C(=O)Cn1c(C(C)O)nc2ccccc21 (stereo unspecified) | inactive: -2.09%
FC(F)(F)c1nc2ccccc2n1CCNc1nc(CN2CCCCC2)cs1 | inactive: -2.6%
O=C1CC(N2CCC(n3c(=O)[nH]c4ccccc43)CC2)C(=O)N1Cc1ccccc1 (stereo unspecified) | inactive: -1.33%
O=C(CCCCCNC(=O)N1CCn2c1nc1ccccc12)NCc1ccc(F)cc1 | inactive: -1.21%
Cc1ccc2c(c1)C1CN(C)CCC1N2C(=O)c1cccc(S(=O)(=O)N(C)C)c1 (stereo unspecified) | inactive: -2.12%
CC(C)N(C(=O)Cn1c(SCC(=O)Nc2nccs2)nc2ccccc21)C(C)C | inactive: -1.05%
CSc1nc(N)nc2c1ncn2CC(=O)NCC(c1ccccc1)c1ccccc1 | inactive: -2.43%
Cc1ccc2c(c1)C1CN(C)CCC1N2S(=O)(=O)c1ccccc1 (stereo unspecified) | inactive: 0.09%
CC(C)[C@H](NC(=O)N1CCn2c1nc1ccccc12)C(=O)NCCc1ccccc1 | inactive: -1.6%
CN1CCC(N(C)c2ccc(C(N)=O)cc2[N+](=O)[O-])CC1 | inactive: -0.53%
O=C(OC1CN2CCC1CC2)c1ccccc1 (stereo unspecified) | inactive: -4.08%
CC(O)CNc1nc2ccccc2n1CC(=O)NC12CC3CC(CC(C3)C1)C2 (stereo unspecified) | inactive: 1.56%
CC1CN(CCn2cnc3c(N)ncnc32)CC(C)O1 (stereo unspecified) | inactive: -3.07%
CCC(=O)N1C2C3N(C(=O)CC)C1C1N(C(=O)CC)C(C(N1C(=O)CC)N3C(=O)CC)N2C(=O)CC | inactive: 1.13%
